Reference: ChEMBL document CHEMBL5550208, “Discovery and Optimization of Hsp110 and sGC Dual-Target Regulators for the Treatment of Pulmonary Arterial Hypertension” (J Med Chem, 2024)

Chains of the proteins cited; added tags and fusions are not shown. Lines headed by an entry give the natural chain unless they say otherwise; changes in a name come on top.
UniProt Q92598: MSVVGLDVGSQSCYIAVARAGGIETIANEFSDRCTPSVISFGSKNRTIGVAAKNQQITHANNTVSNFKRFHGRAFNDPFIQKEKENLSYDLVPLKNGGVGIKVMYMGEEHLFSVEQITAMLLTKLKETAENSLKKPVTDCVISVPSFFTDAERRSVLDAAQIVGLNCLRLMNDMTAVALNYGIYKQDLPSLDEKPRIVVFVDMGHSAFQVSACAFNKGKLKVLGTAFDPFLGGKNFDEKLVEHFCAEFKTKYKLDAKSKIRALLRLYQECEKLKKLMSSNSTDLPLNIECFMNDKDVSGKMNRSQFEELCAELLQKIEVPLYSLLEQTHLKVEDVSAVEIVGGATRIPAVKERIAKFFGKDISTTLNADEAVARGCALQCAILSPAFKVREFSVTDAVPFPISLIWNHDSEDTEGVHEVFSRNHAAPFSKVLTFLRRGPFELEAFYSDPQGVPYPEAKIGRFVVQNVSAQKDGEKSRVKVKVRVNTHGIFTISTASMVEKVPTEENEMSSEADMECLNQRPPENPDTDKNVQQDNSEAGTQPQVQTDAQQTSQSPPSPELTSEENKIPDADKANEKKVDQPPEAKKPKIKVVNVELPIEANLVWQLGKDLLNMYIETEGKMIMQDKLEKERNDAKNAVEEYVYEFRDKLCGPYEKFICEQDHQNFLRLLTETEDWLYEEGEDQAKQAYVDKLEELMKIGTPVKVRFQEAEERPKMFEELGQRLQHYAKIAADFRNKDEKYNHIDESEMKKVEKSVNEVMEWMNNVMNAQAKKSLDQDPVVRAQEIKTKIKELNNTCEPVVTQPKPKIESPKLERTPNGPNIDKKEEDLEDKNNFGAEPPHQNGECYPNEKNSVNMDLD

Assays:
[1] = test system: HEK293T; experiment: Activation of sGC in human HEK293T cells assessed as increase in cGMP formation at 10 uM measured every two mins for 2.5 hrs in presence of IBMX /ODQ by fluorescence based analysis; format: cell-based; details: filed as activator
[2] = molecular target: Heat shock protein 105 kDa (Homo sapiens) (UniProt Q92598); experiment: Inhibition of Hsp110 (unknown origin) binding to ATP-FAM expressed in BL21 receptor cells at 50 uM preincubated for 1 hr followed by ATP-FAM (N6-(6-amino)hexyl-ATP-5-FAM addition and measured after 1 hrs by fluorescence polarization assay; format: cell-based; details: time 2.0 hrs
[3] = test system: Rattus norvegicus; experiment: In vivo activation of sGC in hypoxia induced Pulmonary Arterial Hypertension Sprague-Dawley rat model assessed as improvement in hypoxia induced RVH level at 10 mg/kg, po qd measured after 4 weeks by H and E staining based analysis; format: functional, organism-based
[4] = test system: Rattus norvegicus; experiment: Antifibrotic activity against induced Pulmonary Arterial Hypertension Sprague-Dawley rat model assessed as attenuation of PKG1 expression level at 10 mg/kg, po by Western blot analysis; format: functional, organism-based
[5] = test system: Rattus norvegicus; experiment: Antifibrotic activity against hypoxia induced Pulmonary Arterial Hypertension Sprague-Dawley rat model assessed as effect on PCNA protein level at 10 mg/kg, po by Western blot analysis; format: functional, organism-based
[6] = test system: Rattus norvegicus; experiment: In vivo activation of sGC in hypoxia induced Pulmonary Arterial Hypertension Sprague-Dawley rat model assessed as improvement in hypoxia induced PAMT level at 10 mg/kg, po qd measured after 4 weeks by H and E staining based analysis; format: functional, organism-based
[7] = test system: Rattus norvegicus; experiment: Antifibrotic activity against hypoxia induced Pulmonary Arterial Hypertension Sprague-Dawley rat model assessed as downregulation of fibronectin overexpression at 10 mg/kg, po by Western blot analysis; format: functional, organism-based
[8] = test system: Rattus norvegicus; experiment: Antifibrotic activity against hypoxia induced Pulmonary Arterial Hypertension Sprague-Dawley rat model assessed as downregulation of collagen I overexpression at 10 mg/kg, po by Western blot analysis; format: functional, organism-based
[9] = Antiproliferative activity against human PASMC cells at 40 uM measured after 24 hrs by Edu staining based analysis; format: toxicity, cell-based
[10] = Antiproliferative activity against human PASMC cells measured after 48 hrs under hypoxia condition by CCK-8 method; format: toxicity, cell-based; details: 100 µM
[11] = Toxicity in Sprague-Dawley rat assessed as effect on body weight at 10 to 30 mg/kg, po qd measured upto 4 weeks; format: organism-based; details: in vivo, 672 h, dose 10-30 mg/kg
[12] = Apparent oral volume of distribution in male Sprague-Dawley rat at 1 mg/kg, iv; format: ADME, organism-based; details: in vivo
[13] = In vivo activation of sGC in hypoxia induced Pulmonary Arterial Hypertension Sprague-Dawley rat model assessed as reversal of hypoxia induced RVSP level at 30 mg/kg, po qd measured after 4 weeks (reference value: 17.2mmHg); format: functional
[14] = In vivo activation of sGC in hypoxia induced Pulmonary Arterial Hypertension Sprague-Dawley rat model assessed as reversal of hypoxia induced RVSP level at 10 mg/kg, po qd measured after 4 weeks (reference value: 17.2mmHg); format: functional

O=C(O)c1ccc(COc2ccc(Cl)cc2NS(=O)(=O)c2ccc(F)cc2)cc1
Activity [1]: Active
inhibition [2]: Active

COC(=O)N(C)c1c(N)nc(-c2nn(Cc3ccccc3F)c3ncccc23)nc1N [RIOCIGUAT]
Activity [3]: Active
Activity [4]: Active
Activity [5]: inactive
Activity [6]: Active
Activity [7]: Active
Activity [8]: Active

O=C(O)CCc1cccc(NC(=O)c2cc(Cl)ccc2NC(=O)c2ccc(C(F)(F)F)cc2)c1
Activity [9]: Toxic
Activity [10]: Dose-Dependent Effect
Activity [11]: Non-Toxic
Vd/F [12]: 34.7 L/kg
Activity [13]: 32.4 mmHg
Activity [14]: 27.1 mmHg

Active and inactive are the calls of the source. The rule behind the calls is not given here.
